Patent US20070207975A1, “Materials and methods for treating and preventing Her-2/neu overexpressing, FAS-elevated cancer cells” (EVANSTON NORTHWESTERN HEALTHCARE, priority 2006, published 2007)

Tested on: p185^Her-2/neu
Assay: Flow cytometric analysis of cell surface-associated p185Her-2/neu
Type: cell-based, human
Settings: for down-regulation of p185^Her-2/neu expression: OA 5 mM, trastuzumab 5 mg/ml
Protocol: FIG. 1. Flow cytometric analysis of cell surface-associated p185^Her-2/neu in Her-2/neu-overexpressing BT-474 and SK-Br3 breast cancer cells exogenously supplemented with OA. Overnight serum-starved BT-474 and SK-Br3 breast cancer cells were cultured in Improved Minimum Essential Medium (IMEM; Richter's medium; Biosource International, Camarillo, Calif.) -0.1% FBS in the presence or absence of 20 mM OA for 48 hours. The specific surface expression of p185^Her-2/neu in OA-treated cells was determined by flow cytometry by measuring the binding of a mouse anti-p185^Her-2/neu monoclonal antibody directed against the extracellular domain of p185^Her-2/neu (Ab-5 clone), as described herein. The mean fluorescence signal±SD (n=3) associated with cells for labeled p185^Her-2/neu was quantified using the geo mean fluorescence (GM) parameter provided with the Cell Quest Software (Becton Dickinson). FIG. 2. Exogenous supplementation with OA synergistically enhances trastuzumab-induced down-regulation of p185^Her-2/neu. […] The amount of cell surface-associated p185^Her-2/neu was quantified by flow cytometric analyses using a specific antibody against the extracellular domain of p185^Her-2/neu (Ab-5), as described herein. The mean fluorescence signal±SD (n=3) was quantified using the geo mean fluorescence (GM) parameter provided with the Cell Quest Software (Becton Dickinson). […] After labeling, cells were washed thoroughly, and localization of p185^Her-2/neu was detected by indirect immunofluorescence by incubating with FITC-conjugated anti-mouse IgG. […] A) Cell surface expression of Her-2/neu protein in BT-474 and SK-Br3 cells was determined by flow cytometry using a mouse anti-Her-2/neu antibody directed against the extracellular domain of the p185^Her-2/neu oncoprotein (clone Ab-5; Oncogene Research Products; San Diego, Calif.). […] The mean fluorescence signal associated with cells for labeled p185^Her-2/neu was quantified using the Geo Mean (GM) fluorescence parameter provided with the software. […] Immunoreactive bands were detected by enhanced chemiluminescence reagent (Pierce, Rockford, Ill.). […]

trastuzumab: humanized monoclonal IgG1, binding with high affinity to the ectodomain of p185^Her-2/neu [reference compound]
down-regulation of p185^Her-2/neu expression (BT-474 cells, alone or concurrently combined): 8%
down-regulation of p185^Her-2/neu expression (SK-Br3 cells, alone or combined): 26%
reduction of cell surface-associated p185^Her-2/neu expression (optimal concentration, 20 mg/ml trastuzumab): up to 48%
